US7179495B1 (Universitaetsklinikum Freiburg, priority 1998, dated 2007)

Tested on: MT450 cells (mammary carcinoma)
Settings: rats; daily intratumour injection of 500 μg in 10% DMSO/PBS; day 0 to day 30; FIG. 4
Method: A treatment with the same concentrations of the cytostatic agent taxol was carried out for comparison. Each treatment group consisted of 8 experimental animals; the treatment was carried out blind (blind experiment). 1 million tumour cells were injected into each animal. Intratumour injections were started after 3 weeks. […] The tumour volume was measured planimetrically 8 times, from the start of the tumour injections (day 0) until the conclusion of the treatment (day 30) and recorded as a growth curve (mean value +/− standard deviation) in FIG. 4.

## CC(C)=CCC[C@]1(C)[C@@H](CC=C(C)C)CC2(CC=C(C)C)C(=O)C(CC=C(C)C)=C(O)C1(C(=O)C(C)C)C2=O (stereo partly shown) [hyperforin]
  tumour growth (tumour volume) in vivo: significantly inhibits the growth
